In patent publication US11845808B2, “Peptide inhibitors of interleukin-23 receptor and their use to treat inflammatory diseases” (Janssen Biotech, Inc., priority 2020, dated 2023):

What was measured:
Format in all cases: in vitro ADME
[1] = Stability in human fecal homogenate; details: 20% human fecal homogenate, 37° C., 20 μM
Protocol: (§1) Studies were carried out in human or cynomlogus monkey fecal homogenate to evaluate gastrointestinal stability of the peptide inhibitors of the present invention.
(§2) Fecal homogenate (20%) was prepared by adding 4 mL of growth medium (1 liter contains 2 g peptone water powder, 2 g yeast extract, 0.1 g NaCl, 0.04 g KH2PO4, 0.01 g CaCl2·6H2O, 0.01 g MgSO4.7H2O, 2 mL Tween 80, 0.5 g bile salts, 0.5 g L-cysteine HCl, 2 g NaHCO3, and 10 μL Vitamin K, pH adjusted to 6.8, and sterilized by filtration through a 0.22 μm filter) to every gram of feces (pooled freshly collected human or cynomolgus monkey feces). The suspension was vortexed to break up large clumps, and homogenized using a bead mill homogenizer. Centrifuged the homogenate at 2800×g for 15 min. The supernatant is taken out and used for incubations. DMSO stocks (10 mM) were first prepared for the test compounds. Incubations were performed in an anaerobic chamber conditioned at 37° C. Aliquots of the DMSO solutions were dosed into 1.0 mL aliquots of 20% fecal homogenate, which are pre-warmed to 37° C. The final test compound concentration was 20 μM. At each timepoint (0, 20 min, 1, 3, 6, or 24 hours), 100 μL aliquot of each incubation mixture is taken out and added to separate tubes containing 300 μL of 50% acetonitrile/50% methanol and an internal standard to terminate the reaction. Samples were taken out of the anaerobic chamber and stored at 4° C. until the end of the experiment. After the final timepoint is sampled, the tubes were mixed and then centrifuged at 3,000 rpm for 10 minutes. Aliquots of the supernatant were removed, diluted 1:1 into distilled water containing 0.1% formic acid, and analyzed by LC/MS/MS. Percent remaining at each timepoint was calculated based on the peak area response ratio of test to compound to internal standard. Time 0 was set to 100%, and all later timepoints were calculated relative to time 0. Half-lives were calculated by fitting to a first-order exponential decay equation using Graphpad or Excel.

[2] = Stability in simulated intestinal fluid (SIF); details: 100 fold dilution of standard SIF concentration, 37° C., 20 μM
Protocol: Studies were carried out in simulated intestinal fluid (SIF) and simulated gastric fluid (SGF) to evaluate gastric stability of the peptide inhibitors of the present invention. In addition, studies were carried out to assess redox stability of the peptide inhibitors of the present invention.
SIF was prepared by adding 6.8 g of monobasic potassium phosphate and 10.0 g of pancreatin to 1.0 L of water. After dissolution, the pH was adjusted to 6.8 using NaOH. DMSO stocks (2 mM) were first prepared for the test compounds. Aliquots of the DMSO solutions were dosed into 6 individual tubes, each containing 0.5 mL of SIF, which is pre-warmed to 37° C. The final test compound concentration was 20 μM. The vials were kept in a benchtop Thermomixer® for the duration of the experiment. At each timepoint (0, 5, 10, 20, 40, 60, or 360 minutes or 24 hours), 1.0 mL of acetonitrile containing 1% formic acid was added to one vial to terminate the reaction. Samples were stored at 4° C. until the end of the experiment. After the final timepoint is sampled, the tubes were mixed and then centrifuged at 3,000 rpm for 10 minutes. Aliquots of the supernatant were removed, diluted 1:1 into distilled water containing internal standard, and analyzed by LCMS/MS. Percent remaining at each timepoint was calculated based on the peak area response ratio of test to compound to internal standard. Time 0 was set to 100%, and all later timepoints were calculated relative to time 0. Half-lives were calculated by fitting to a first-order exponential decay equation using Graphpad.

[3] = Stability in cynomolgus monkey fecal homogenate; details: 20% cynomolgus monkey fecal homogenate, 37° C., 20 μM
Protocol: as §1, §2

Stability in rat plasma = details: SD rat plasma, 37° C., 20 μM
Protocol: Example 6: Stability of Peptide Inhibitors in Rat Plasma
Peptides of interest (20 μM) were incubated with pre-warmed rat plasma (SD rat, mixed gender pooled, EDTA, filtered through 0.22 μm, BioreclamationIVT) at 37° C. Aliquots were taken at various time points up to 24 hours (e.g. 0, 0.25, 1, 3, 6 and 24 hr), and immediately quenched with 4 volumes of organic solvent (acetonitrile/methanol (1:1) and 0.1% formic acid, containing 1 μM internal standard). Quenched samples were stored at 4° C. until the end of the experiment and centrifuged at 4,000 rpm for 10 minutes. The supernatant were diluted 1:1 with deionized water and analyzed using LC-MS. Percentage remaining at each time point was calculated based on the peak area ratio (analyte over internal standard) relative to the initial level at time zero. Half-lives were calculated by fitting to a first-order exponential decay equation using GraphPad.

| Substance | t½: Human Feces anaerobic [1] | SIF t½ [2] | t½: Monkey Feces anaerobic [3] | t½: Rat Plasma EDTA (Stability in rat plasma) |
| --- | --- | --- | --- | --- |
| Ac-[(D)Arg]-[Abu]-N-T-[W(7-Me)]-Q-[Cys]-Phe[4-(2-aminoethoxy)]-[2-Nal]-[THP]-E-N-[(D)Leu]-[Sarc]-NH2 [Peptide 101] | 1.8 h | >24.0 h | 8.1 h |  |
| Ac-[(D)Arg]-[Abu]-N-T-[W(7-Me)]-[Cit]-[Cys]-Phe[4-(2-aminoethoxy)]-[2-Nal]-[THP]-E-N-H-[Sarc]-NH2 [Peptide 102] | 1.2 h | 17.9 h | 4.2 h |  |
| Ac-[(D)Arg]-[Abu]-Q-T-[W(7-Ph)]-[Lys(Ac)]-[Cys]-Phe[4-(2-aminoethoxy)]-[2-Nal]-[a-MeLys]-[Lys(Ac)]-N-dK-[Sarc]-NH2 [Peptide 1] | >24.0 h | 22.4 h | >24.0 h | >24.0 h |
| Ac-[Abu]-N-T-[W(7-Me)]-Q-[Cys]-Phe[4-(2-aminoethoxy)]-[3Quin]-[THP]-E-N-H-[Sarc]-NH2 [Peptide 94] | 1.2 h | >24.0 h | 9.9 h |  |
| Ac-[Abu]-N-T-[W(7-Me)]-[Lys(Ac)]-[Cys]-Phe[4-(2-aminoethoxy)]-[2-Nal]-[THP]-E-N-H-[Sarc]-NH2 [Peptide 99] | 2.3 h | 10.8 h | 8.8 h |  |
| Ac-[Abu]-N-T-[W(7-Me)]-[Lys(Ac)]-[Cys]-Phe[4-(2-aminoethoxy)]-[2-Nal]-[a-MeLys]-[Lys(Ac)]-N-H-[Sarc]-NH2 [Peptide 97] | 5.1 h | 6.6 h | 8 h |  |
| Ac-[Abu]-N-T-[W(7-Ph)]-Q-[Cys]-Phe[4-(2-aminoethoxy)]-[2-Nal]-[THP]-E-N-H-[Sarc]-NH2 [Peptide 96] | 1.5 h | >24.0 h | 8.6 h |  |
| Ac-[Abu]-N-T-[W(7-Ph)]-Q-[Cys]-Phe[4-(2-aminoethoxy)]-[2-Nal]-[a-MeLys]-[Lys(Ac)]-N-H-[Sarc]-NH2 [Peptide 95] | 13.3 h | >24.0 h | 17.3 h | >24.0 h |
| Ac-[Abu]-N-T-[W(7-Ph)]-Q-[Cys]-Phe[4-(2-aminoethoxy)]-[3Quin]-[THP]-E-N-H-[Sarc]-NH2 [Peptide 93] | 1.3 h | >24.0 h | 8.4 h |  |
| Ac-[Abu]-N-T-[W(7-Ph)]-[Lys(Ac)]-[Cys]-Phe[4-(2-aminoethoxy)]-[2-Nal]-[THP]-E-N-H-[Sarc]-NH2 [Peptide 98] | 6.8 h | >24.0 h | 14.1 h |  |
| Ac-[Abu]-Q-T-[W(7-Me)]-Q-[Cys]-Phe[4-(2-aminoethoxy)]-[2-Nal]-[a-MeLys]-[Lys(Ac)]-N-[3Pal]-[Sarc]-NH2 [Peptide 110] | 10.6 h | 15 h | 20.1 h | >24.0 h |
| Ac-[Abu]-Q-T-[W(7-Me)]-[Cit]-[Cys]-Phe[4-(2-aminoethoxy)]-[2-Nal]-[THP]-E-N-[3Pal]-[Sarc]-NH2 [Peptide 111] | 2 h | 8.5 h | 12.8 h |  |
| Ac-[Abu]-Q-T-[W(7-Me)]-[Cit]-[Cys]-Phe[4-(2-aminoethoxy)]-[2-Nal]-[a-MeLys]-[Lys(Ac)]-N-[3Pal]-[Sarc]-NH2 [Peptide 112] | 10.9 h | 10 h | 17 h | >24.0 h |
| Ac-[Pen]-N-T-[(W(7-(3-pyrazol-1-yl))]-[Lys(Ac)]-[Pen]-Phe[4-(2-aminoethoxy)]-[2-Nal]-[THP]-E-N-[3Pal]-[Sarc]-NH2 [Peptide 151] | >24.0 h | >24.0 h | >24.0 h |  |
| Ac-[Pen]-N-T-[(W(7-(5-Et)]-[Lys(Ac)]-[Pen]-Phe[4-(2-aminoethoxy)]-[2-Nal]-[THP]-E-N-[3Pal]-[Sarc]-NH2 [Peptide 149] | >24.0 h | >24.0 h | >24.0 h |  |
| Ac-[Pen]-N-T-[W(7-(2-OMePh)]-[Lys(Ac)]-[Pen]-Phe[4-(2-aminoethoxy)]-[2-Nal]-[a-MeLys]-[Lys(Ac)]-N-H-[Sarc]-NH2 [Peptide 49] | >24.0 h | 23.8 h | >24.0 h | >24.0 h |
| Ac-[Pen]-N-T-[W(7-(4-Anthracen-5-yl))]-[Lys(Ac)]-[Pen]-Phe[4-(2-aminoethoxy)]-[2-Nal]-[THP]-E-N-H-[Sarc]-NH2 [Peptide 70] | >24.0 h | >24.0 h | >24.0 h | >24.0 h |
| Ac-[Pen]-N-T-[W(7-(4Quin))]-[Lys(Ac)]-[Pen]-Phe[4-(2-aminoethoxy)]-[2-Nal]-[THP]-E-N-[3Pal]-[Sarc]-NH2 [Peptide 147] | >24.0 h | >24.0 h | >24.0 h |  |
| Ac-[Pen]-N-T-[W(7-Me)]-[Lys(Ac)]-[Pen]-Phe[4-(2-aminoethoxy)]-[2-Nal]-[THP]-E-N-[ 7-Aza-tryptophan]-[Sarc]-NH2 [Peptide 119] |  | 19.6 h |  | >24.0 h |
| Ac-[Pen]-N-T-[W(7-Me)]-[Lys(Ac)]-[Pen]-Phe[4-(2-aminoethoxy)]-[2-Nal]-[THP]-E-N-[(D)Leu]-[Sarc]-NH2 [Peptide 24] | >24.0 h | >24.0 h | >24.0 h | 1 h |
| Ac-[Pen]-N-T-[W(7-Me)]-[Lys(Ac)]-[Pen]-Phe[4-(2-aminoethoxy)]-[2-Nal]-[THP]-[Lys(Ac)]-N-H-[Sarc]-NH2 [Peptide 81] | 17.5 h | 11.9 h | 18.3 h | >24.0 h |
| Ac-[Pen]-N-T-[W(7-Me)]-[Lys(Ac)]-[Pen]-Phe[4-(2-aminoethoxy)]-[2-Nal]-[a-MeLys]-[Lys(Ac)]-N-[(D)Leu]-[Sarc]-NH2 [Peptide 25] | >24.0 h | >24.0 h | >24.0 h | >24.0 h |
| Ac-[Pen]-N-T-[W(7-Ph)]-Q-[Pen]-Phe[4-(2-aminoethoxy)]-[2-Nal]-[THP]-E-N-[3Pal]-[Sarc]-NH2 [Peptide 127] |  | >24.0 h |  | >24.0 h |
| Ac-[Pen]-N-T-[W(7-indazol-5-yl)]-[Lys(Ac)]-[Pen]-Phe[4-(2-aminoethoxy)]-[2-Nal]-[THP]-E-N-[3Pal]-[Sarc]-NH2 [Peptide 152] | >24.0 h | >24.0 h | >24.0 h |  |
